Results as given in patent US20240307353A1, “JAK1 PATHWAY INHIBITORS FOR THE TREATMENT OF ASTHMA” (Incyte Corporation, priority 2023, published 2024).

Biological target: human JAK1 (a.a. 837-1142) (Homo sapiens, UniProt P23458)
Assay: In vitro JAK kinase assay (HTRF), JAK1
Format: biochemical
Conditions: 1 mM ATP

pIC50: > 8.00
Compound: CN(C)Cc1cc(F)cc(OC2CCN(CC(CC#N)n3cc(-c4ncnc5[nH]ccc45)cn3)CC2)c1 (single isomer, unassigned) [Compound 14, 4-(4-{3-[(dimethylamino)methyl]-5-fluorophenoxy}piperidin-1-yl)-3-[4-(7H-pyrrolo[2,3-d]pyrimidin-4-yl)-1H-pyrazol-1-yl]butanenitrile]

pIC50: −log10 of the molar value.
